Experimental data from US9289509B2, “Uses of immunoconjugates targeting CD138” (Biotest AG, priority 2009, dated 2016).

System: MOLP8 multiple myeloma cells
Test: MOLP8 xenograft: BT062 and VELCADE combination therapy
Assay type: in vivo, mouse
Conditions: Velcade alone, dosed days 1, 4, 8 and 11; day 10

CC(C)C[C@H](NC(=O)[C@H](Cc1ccccc1)NC(=O)c1cnccn1)B(O)O [Velcade, reference compound]
Fractional tumor volume (FTV): 1.05
